Key:
[1] = target: CB1R (Mus musculus, UniProt P47746); conditions: three distinct models of chronic liver injury; cited from earlier work
[2] = target: T1, CB1R-AT1R heteromer (Rattus norvegicus, UniProt P20272+P25095); assay: Ang II-mediated pERK in activated HSCs (eHSCs), Western blot; assay type: cell-based; conditions: eHSCs from ethanol treated rats, Ang II stimulation, THL pretreatment 10 or 30 minutes, pERK normalized to total ERK
T1 construct: endogenous in cells; host or cells: primary hepatic stellate cells from ethanol-fed Sprague-Dawley rats (eHSCs)

Amino acid sequences for entries named in this document (tags omitted).
UniProt P47746, whole entry: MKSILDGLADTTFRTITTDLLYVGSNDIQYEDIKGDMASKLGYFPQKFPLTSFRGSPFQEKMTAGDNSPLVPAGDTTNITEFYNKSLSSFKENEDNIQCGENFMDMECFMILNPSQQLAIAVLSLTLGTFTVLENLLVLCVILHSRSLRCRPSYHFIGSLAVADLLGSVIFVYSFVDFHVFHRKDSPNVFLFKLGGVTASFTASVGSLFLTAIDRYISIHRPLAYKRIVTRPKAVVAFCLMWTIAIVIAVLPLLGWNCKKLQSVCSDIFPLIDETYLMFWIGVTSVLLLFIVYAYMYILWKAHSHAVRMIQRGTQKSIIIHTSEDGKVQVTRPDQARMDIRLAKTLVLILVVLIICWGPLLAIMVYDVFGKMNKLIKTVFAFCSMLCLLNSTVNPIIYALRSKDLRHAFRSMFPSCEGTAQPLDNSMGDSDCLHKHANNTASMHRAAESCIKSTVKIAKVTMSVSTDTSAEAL
UniProt P20272, whole entry: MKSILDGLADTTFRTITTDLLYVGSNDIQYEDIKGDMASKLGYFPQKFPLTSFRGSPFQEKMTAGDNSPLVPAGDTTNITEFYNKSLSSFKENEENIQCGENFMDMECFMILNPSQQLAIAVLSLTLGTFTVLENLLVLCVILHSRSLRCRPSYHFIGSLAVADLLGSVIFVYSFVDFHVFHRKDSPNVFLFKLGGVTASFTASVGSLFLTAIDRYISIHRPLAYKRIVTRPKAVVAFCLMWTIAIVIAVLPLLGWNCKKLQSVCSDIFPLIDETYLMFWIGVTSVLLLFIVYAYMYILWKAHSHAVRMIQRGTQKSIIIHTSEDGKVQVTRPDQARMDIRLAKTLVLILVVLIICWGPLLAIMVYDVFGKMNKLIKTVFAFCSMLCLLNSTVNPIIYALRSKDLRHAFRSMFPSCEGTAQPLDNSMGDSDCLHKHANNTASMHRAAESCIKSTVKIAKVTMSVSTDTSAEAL
UniProt P25095, whole entry: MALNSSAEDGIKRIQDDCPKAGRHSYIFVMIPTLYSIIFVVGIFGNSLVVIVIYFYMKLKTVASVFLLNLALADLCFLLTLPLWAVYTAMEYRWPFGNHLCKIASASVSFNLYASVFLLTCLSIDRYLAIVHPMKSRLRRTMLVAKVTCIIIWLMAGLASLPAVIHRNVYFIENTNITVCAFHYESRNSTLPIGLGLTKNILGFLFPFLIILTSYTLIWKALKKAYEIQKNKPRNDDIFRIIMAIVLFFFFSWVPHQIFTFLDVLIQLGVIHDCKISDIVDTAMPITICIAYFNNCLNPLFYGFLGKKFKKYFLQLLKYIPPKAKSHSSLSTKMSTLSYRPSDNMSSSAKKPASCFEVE

[3] = target: T2, CB1R-AT1R heteromer (UniProt P30556+P47746); assay: Ang II-mediated pERK in Neuro2A-AT1R cells; assay type: cell-based; conditions: SR141716 1 μM
T2 construct: Neuro2A cells expressing endogenous CB1R and recombinant AT1R; expressed in transfected cells; host or cells: Neuro2A stably expressing AT1R (CB1R endogenous)

[4] = tested on: profibrogenic genes; assay: Profibrogenic gene expression in liver of CCl4 or vehicle treated mice; assay type: in vivo; conditions: AM251 2 mg/kg co-administered with CGS21680, 6 hours
Method: Murine model of liver fibrosis and human tissues. Wild-type C54b16 mice were treated with i.p. injections of CCl4 (2 mL/kg CCl4 mixed with mineral oil; 10% v/v) or mineral oil, 3 times a week for 8 weeks (n=5-6 per group). There were no deaths in any of the groups. […] Six hours after the injections, mice were sacrificed by CO2 narcosis. Aliquots of liver tissue (50-100 mg) were flash frozen and kept at −80° C. until RNA isolation. The tissue was minced and homogenized in TRIzol reagent, and RNA was extracted according to the manufacturer's instructions and then dissolved in sterile DEPC water and stored at −80° C. RT-PCR was performed as described:
Real-Time Quantitative Reverse Transcription-Polymerase Chain Reaction. Total RNA was isolated from 3×10^8 HSCs using the TRIzol method (Invitrogen, Carlsbad, Calif., USA). RNA (1.0 μg) was reverse-transcribed in 20 μl of buffer containing 50 μM oligo(dT)20, 25 mM MgCl2, 0.1 M dithiothreitol, 40 U/μl RNaseOUT, and 200 U/μl SuperScript III RT for 50 min at 50° C. The reaction was stopped by incubating the samples at 85° C. for 5 min, and 40 μl of nuclease-free water was added. Real-time PCR was performed by using the Brilliant SYBR Green QPCR Master Mix. The PCR template source was either 30 ng of first-strand cDNA or purified DNA standard. Primer sequences used to amplify the desired cDNA are detailed in Table 2. […]

Compound: Cc1c(C(=O)NN2CCCCC2)nn(-c2ccc(Cl)cc2Cl)c1-c1ccc(Cl)cc1 [SR141716]
- Fibrosis progression [1]: inhibits fibrosis progression
- Effect on Ang II-mediated ERK phosphorylation in eHSCs [2]: prevents
- Effect on Ang II-mediated ERK phosphorylation in eHSCs ([2]; listed as CB1R specific antagonist): prevented
- Ang II-mediated pERK blocked [3]: > 80%

Compound: AM251
- Effect on CGS-induced profibrogenic gene expression in liver [4]: prevented
